According to patent US20010011084A1, “USE OF ESTROGEN TO MODIFY THE AMOUNT OF SEROTONIN TRANSPORTER OR ITS MRNA” (priority 1996, published 2001):

Legend:
[1] = system: serotonin transporter (SERT) binding sites; conditions: for [3H]-paroxetine specific binding: OVX rat, 10 μg s.c., mean ± sem
SERT mRNA = conditions: for Labeled cells Cell area / Labeled cells Grain density / Unlabeled cells Cell area / Unlabeled cells Grain density / Labeled cells Number/section: OVX rat, 10 μg s.c., mean ± sem; for Labeled cells Number/section: n = 4

Structure (SMILES): C[C@]12CC[C@@H]3c4ccc(OC(=O)c5ccccc5)cc4CC[C@H]3[C@@H]1CC[C@@H]2O [EB, estradiol benzoate]
- [3H]-paroxetine specific binding ([1]; Basolateral amygdala): 112.7 ± 9.2 (7)*↑ fmol/mg tissue
- [3H]-paroxetine specific binding ([1]; Cingulate cortex): 50.9 ± 4.9 (7) fmol/mg tissue
- [3H]-paroxetine specific binding ([1]; Dorsal tegmental nucleus): 165.2 ± 40.8 (5) fmol/mg tissue
- [3H]-paroxetine specific binding ([1]; Frontal cortex): 21.4 ± 2.4 (7) fmol/mg tissue
- [3H]-paroxetine specific binding ([1]; Hippocampus: CA1): 41.3 ± 7.8 (3) fmol/mg tissue
- [3H]-paroxetine specific binding ([1]; Hippocampus: CA3): 85.3 ± 5.2 (7) fmol/mg tissue
- [3H]-paroxetine specific binding ([1]; Hypothalamus: Ventromedial): 51.0 ± 8.3 (6)**↑ fmol/mg tissue
- [3H]-paroxetine specific binding ([1]; Lateral geniculate): 92.3 ± 6.2 (7) fmol/mg tissue
- [3H]-paroxetine specific binding ([1]; Lateral septum): 40.9 ± 5.5 (7)*↑ fmol/mg tissue
- [3H]-paroxetine specific binding ([1]; Locus coeruleus): 173.0 ± 20.4 (7) fmol/mg tissue
- [3H]-paroxetine specific binding ([1]; Periaqueductal central gray): 76.1 ± 5.5 (7)*↓ fmol/mg tissue
- [3H]-paroxetine specific binding ([1]; Raphe pontis): 124.3 ± 9.1 (4) fmol/mg tissue
- [3H]-paroxetine specific binding ([1]; Rostral linear nucleus): 92.7 ± 13.5 (7) fmol/mg tissue
- [3H]-paroxetine specific binding ([1]; Superior colliculus): 110.0 ± 6.7 (7) fmol/mg tissue
- [3H]-paroxetine specific binding ([1]; Thalamus: Dorsal): 103.1 ± 11.6 (7) fmol/mg tissue
- [3H]-paroxetine specific binding ([1]; Thalamus: Paraventricular): 127.5 ± 8.6 (7) fmol/mg tissue
- [3H]-paroxetine specific binding ([1]; Thalamus: Ventral): 23.2 ± 5.4 (5)*↑ fmol/mg tissue
- increase in density of SERT binding sites ([1]; basolateral amygdala, vs oil-treated OVX rats): 20%
- labelling compared with controls (FIG. 3) ([1]; dorsal raphe or median raphe, 10 μg): no apparent difference
- [3H]-paroxetine specific binding ([1]; dorsal raphe): 206.6 ± 10.1 (7) fmol/mg tissue
- density of binding sites compared with controls (FIG. 3) ([1]; lateral septum, basolateral amygdala, ventral thalamus, ventromedial hypothalamic nucleus, 10 μg): higher
- increase in density of SERT binding sites ([1]; lateral septum, vs oil-treated OVX rats): 90%
- [3H]-paroxetine specific binding ([1]; median raphe): 146.6 ± 10.3 (7) fmol/mg tissue
- density of binding sites compared with controls (FIG. 3) ([1]; periaqueductal central gray, 10 μg): lower
- decrease in density of SERT binding sites ([1]; periaqueductal central gray, vs oil-treated OVX rats): 15%
- increase in density of SERT binding sites ([1]; ventral nucleus of thalamus, vs oil-treated OVX rats): 250%
- increase in density of SERT binding sites ([1]; ventromedial nucleus of hypothalamus, vs oil-treated OVX rats): 250%
- increase in number of cells expressing SERT mRNA (labelled cells) (SERT mRNA; dorsal raphe nucleus, vs oil-treated OVX rats): 50%
- Labeled cells Cell area (SERT mRNA; dorsal raphe): 287 ± 34 μ^2
- Labeled cells Grain density (SERT mRNA; dorsal raphe): 16.4 ± 1.19 % cell area
- Unlabeled cells Cell area (SERT mRNA; dorsal raphe): 160 ± 35 μ^2
- Unlabeled cells Grain density (SERT mRNA; dorsal raphe): 0.57 ± 0.13 % cell area
- Labeled cells Number/section (SERT mRNA; dorsal raphe): 158.1 ± 17.8
- Labeled cells Cell area (SERT mRNA; median raphe): 230 ± 33 μ^2
- Labeled cells Grain density (SERT mRNA; median raphe): 16.1 ± 0.46 % cell area
- Unlabeled cells Cell area (SERT mRNA; median raphe): 132 ± 22 μ^2
- Unlabeled cells Grain density (SERT mRNA; median raphe): 0.58 ± 0.07 % cell area
- Labeled cells Number/section (SERT mRNA; median raphe): 28.7 ± 3.6
- SERT mRNA containing cells compared with control (FIG. 2) (SERT mRNA; ventromedial part of the dorsal raphe): many more

Read-outs that look alike come from different tables or passages of the source.
